# Source: PubChem
# Casp6 inh – caspase-6 (human) enzyme inhibition; P55212; purified caspase-6, Z-VEID-R110 cleavage fluorescence; inhibition, % at 12.5 µM; actives 0.53% (n = 350,000); AID 686996;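 active = mean inhibition across replicates at least about 35%, with every replicate also reaching that limit, limit read from the data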;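 also: 0% = median of neutral control wells and 100% = no fluorescence left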
# RAD52 anneal inh – inhibitors of human RAD52 DNA annealing; actives 0.46% (n = 360,000); P43351; inhibition, % at 18.7 µM; AID 651710; recombinant RAD52 DNA annealing, FRET fluorescence;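 active = every replicate showing at least 50% inhibition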
# Yeast UUG start – modulators of yeast start codon fidelity, primary screen, whole organism, S. cerevisiae, single point, plate reader | AID 602363, 2012 | actives 0.13% (n = 350,000) | activity score, % at 18.7 µM | S. cerevisiae UUG-firefly luciferase reporter, luminescence/redox ratio;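 active means replicate mean at a twofold rise or more, about +100% in these data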;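 further: firefly luciferase made from a UUG start codon reports start codon fidelity; reporter light over untreated wells divided by growth signal over untreated wells; some hits fall short of that in this replicate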
# INS-1E GSIS act – GLuc luminescence reporter in INS-1E cells, primary screen for activators of glucose-dependent secretion of insulin; actives 0.61% (n = 370,000); activation, % at 16.6 µM; AID 743287; INS-1E GLuc reporter insulin secretion, 2-3 h;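 active = lowest replicate activation of at least 40%, so every replicate reaches that level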;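 also: 0% = median of neutral control wells and 100% = median of IBMX positive control wells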
# PglD inh – inhibitors of Campylobacter jejuni PglD acetyltransferase; purified PglD enzyme, DTNB colorimetric CoA detection; AID 602405; actives 0.098% (n = 360,000); inhibition, % at 12.5 µM; in the data active = inhibition above about 16%, passing the limit was not always enough
# RAD54 inh – blocks human RAD54 Holliday junction branch migration. Q92698. FAM/BHQ fluorescence. inhibition, % at 10.4 µM. actives 0.14% (n = 360,000). AID 602329;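 active = mean normalized replicate activity at least 40 and at least half of replicates scoring 40 or more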;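 also: 0% = median of neutral control wells and 100% = median of positive control wells; inhibitors cause a drop in the FAM fluorescence signal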
# * = called active by the depositor; / = no result given; ! = not confirmed by another sample. An excerpt weighted towards active compounds, which were near 1.5% of everything screened.
# Value order: Casp6 inh	RAD52 anneal inh	Yeast UUG start	INS-1E GSIS act	PglD inh	RAD54 inh
1. CCOC(=O)C1(Cc2cccc(OC)c2)CCN(Cc2ccc(OC)c(O)c2)CC1
→ -2	-16	-6	-16	6	-1
2. CC(C)(C)c1ccc(-c2cc(-c3ccccc3O)[nH]n2)cc1
→ -2	1	-47	68*	5	3
3. NNC(=O)c1cccnc1Oc1ccccc1
→ 2	-19	-4	44*	4	-3
4. NC(=O)c1cccnc1Oc1ccccc1
→ -1	-8	-16	23	5	-8
5. N#CCCN(CC(=O)O)S(=O)(=O)c1ccccc1
→ /	/	-20	/	1	1
6. COc1cc(CN2CCc3ccc(NC(=O)CCc4ccccc4OC)cc3C2)ccc1O
→ -1	-15	-2	8	3	-22
7. COc1ccccc1CCC(=O)Nc1ccc2c(c1)CN(CCCn1cccn1)CC2
→ 99*	2	-29	24	3	1
8. CC(C)[C@H]1COCn2nncc2CCCC(=O)N1
→ 4	6	/	4	/	/
9. CC1(C(=O)NNC(=O)c2ccc(=O)oc2)CC1Br (configuration not stated)
→ 42*	-308	-5	-7	0	-4
10. Nc1nc2n(n1)C(c1cccc(Cl)c1)CC(c1ccc(F)cc1)N2 (configuration not stated)
→ 2	-1	-19	49*	4	3

# More structures follow:
# Value order: Casp6 inh	RAD52 anneal inh	Yeast UUG start	INS-1E GSIS act	PglD inh	RAD54 inh
11. Nc1ccccc1-c1ccc([N+](=O)[O-])cc1
→ -2	-3	-7	/	-3	5
12. CCCn1c(=O)c(C(=O)Nc2ccccc2N)c(O)c2ccccc21
→ -1	-1	-7	-2	1	9
13. COc1ccc(C(=O)OCC(=O)c2ccc[nH]2)c(OC)c1
→ 43*	-15	-11	4	2	7
14. CCOc1cc(/C=N/Nc2cc(C)nc(-n3nc(C)cc3C)n2)ccc1O
→ 2	-13	-25	3	7	-6
15. CC(=S)/C=C1\Sc2ccccc2N1C
→ -1	-12	-26	0	-7	3
16. CN1c2ccccc2Sc2cc(N)ccc21
→ 54*	-16	-8	/	-10	12
17. Cc1ccc(NC(=S)NCCc2c[nH]c3ccccc23)c(C)c1
→ 1	-2	/	6	/	/
18. O=C(C[C@H]1CC[C@@H]2[C@H](COC[C@H](O)CN2CC2CCOCC2)O1)NCC1CC1
→ -1	6	14	14	-6	1
19. CC1(c2ccc(Cl)cc2)NC(=O)N(CC(=O)NCCC2=CCCCC2)C1=O (configuration not stated)
→ 1	-22	-3	22	6	-4
20. O=C(C[C@H]1CC[C@H]2[C@@H](COC[C@@H](O)CN2Cc2cccc(-c3ccncc3)c2)O1)N1CCCCC1
→ 1	5	-4	-2	-3	-4

# From compound 11 as far as 13, as listed above:
# Value order: Casp6 inh	RAD52 anneal inh	Yeast UUG start	INS-1E GSIS act	PglD inh	RAD54 inh
11. Nc1ccccc1-c1ccc([N+](=O)[O-])cc1
→ -2	-3	-7	/	-3	5
12. CCCn1c(=O)c(C(=O)Nc2ccccc2N)c(O)c2ccccc21
→ -1	-1	-7	-2	1	9
13. COc1ccc(C(=O)OCC(=O)c2ccc[nH]2)c(OC)c1
→ 43*	-15	-11	4	2	7

# (list continues)
# Value order: Casp6 inh	RAD52 anneal inh	Yeast UUG start	INS-1E GSIS act	PglD inh	RAD54 inh
21. CCOC1=C2[C@H](c3ccc(C)cc3)N(S(=O)(=O)c3ccc(C)cc3)C[C@H]2n2c(=O)n(-c3ccccc3)c(=O)n2C1
→ 0	-12	-21	52*	2	-9
22. CCOC1=C2[C@H](c3cccc(Cl)c3)N(S(=O)(=O)c3ccc(C)cc3)C[C@H]2n2c(=O)n(-c3ccccc3)c(=O)n2C1
→ -2	-28	-11	-17	-2	-2
23. CC(C)C[C@@H](CNCC(=O)[C@H](Cc1c[nH]c2ccccc12)NC(=O)c1[nH]cnc1C(=O)N[C@@H](C)CN)NC(=O)c1nc[nH]c1C(=O)N[C@@H](Cc1ccccc1)C(=O)O
→ 12	-12	131*	-4	-1	-16
24. CC(C)C[C@@H](CNCC(=O)[C@H](C)NC(=O)c1[nH]cnc1C(=O)N[C@@H](C)CN)NC(=O)c1nc[nH]c1C(=O)N[C@@H](Cc1ccccc1)C(=O)O
→ 2	-8	3	4	-2	-7
25. Cc1ccc(NC(=O)C(C)OC(=O)COc2cccc(C(F)(F)F)c2)cc1S(=O)(=O)N1CCOCC1 (configuration not stated)
→ -1	-17	5	-22	0	-5
26. C[C@@H]1CN([C@H](C)CO)C(=O)c2cc(C3=CCCCC3)cnc2O[C@H]1CN(C)C(=O)CN1CCOCC1
→ 1	2	-13	171*	3	6
27. C[C@@H]1CN([C@@H](C)CO)C(=O)c2cc(Br)cnc2O[C@H]1CN(C)C(=O)C1CC1
→ 1	-9	13	46*!	-1	-14
28. COCC#Cc1cnc2c(c1)C(=O)N([C@@H](C)CO)C[C@H](C)[C@@H](CN(C)C(=O)C1CCC1)O2
→ -2	5	36	12	20*	-5
